# Measured values taken from PubChem BioAssay AID743397 (Broad Institute, 2014).
# Only a part is listed here, and it is no random draw. Activity calls are given as the source filed them.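 The calls were made as follows: active = mean replicate inhibition of at least 30% and at least 1% of replicates passing that level; inconclusive = only one of the two criteria is met; inactive = neither criterion is met.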
# Test system: Voltage-dependent L-type calcium channel subunit alpha-1D (CaV1.3) ICDI/IQ interaction
# Test: Disruptors of the CACNA1D IQ motif to Ca2+-dependent inactivation inhibitor domain association, primary screening, Förster resonance energy transfer in intact living cells, one concentration (AID 743397);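 also: 0% = median of the neutral control wells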
# Conditions: HEK cells, CFP/YFP FRET ICDI-IQ, plate reader, 10 min; at 12.3 µM; hits give high values; percent FRET-ratio fall versus neutral wells
row,Compound,inhibition
1,O=[N+]([O-])c1ccc(Nc2ccc(Oc3ccc([N+](=O)[O-])cc3[N+](=O)[O-])cc2)c([N+](=O)[O-])c1,inactive: -4.07%
2,O=C(O)C(O)c1ccc(N(CCCl)CCCl)cc1 (centres undefined),inactive: -5.05%
3,CCOC(=O)Nc1ccc([As](=O)(O)O)c(O)c1,inactive: -6.17%
4,CC1CCNP(=O)(N(CCCl)CCCl)O1 (centres undefined),inactive: -16.3%
5,COP(=O)(OC)N1CC1c1ccccc1 (centres undefined),inactive: -10.5%
6,CCCCOc1ccc(C(=O)NCC2(N3CCCCC3)CCCCC2)cc1OC,inactive: -2.54%
7,Cc1cc(SC(NC(=O)c2ccccc2)C(Cl)(Cl)Cl)nc(C(C)C)n1 (centres undefined),inactive: -6.15%
8,O=C(OC1CN2CCC1CC2)c1cccc([N+](=O)[O-])c1 (centres undefined),inactive: -3.3%
9,CCOC(=O)c1ccc(NC(=O)C(C)(CCl)SC)cc1 (centres undefined),inactive: -4.91%
10,CCC(C)N(CC(C)C)C(=S)SC(NC(C)=O)C(Cl)(Cl)Cl (centres undefined),inactive: -5.6%
11,COP1(=S)c2c(C)nn(CCC#N)c2N=C(c2ccc(F)cc2)N1C (centres undefined),inactive: -8.89%
12,COC(=O)C1(C)COP(=O)(N2CCCC2)OC1 (centres undefined),inactive: -3.66%
13,O=C(O)C(=O)c1ccc(N(CCCl)CCCl)cc1,inactive: -5.65%
14,O=C(COc1ccccc1)OC1CN2CCC1CC2 (centres undefined),inactive: -2.52%
15,O=C(Nc1ccncc1[N+](=O)[O-])c1ccc([N+](=O)[O-])cc1[N+](=O)[O-],inactive: -19.2%
16,COc1ccccc1CNC(=O)COC(=O)C(O)(c1ccccc1)c1ccccc1,inactive: -5.38%
17,CN(C(=O)Cc1ccc(Cl)c(Cl)c1)[C@@H]1CCCC[C@H]1N1CCCC1,inactive: -4.56%
18,CC(C)/C=N\N=C(\N)N[N+](=O)[O-],inactive: 3.83%
19,CCC1=CC2Cc3nc4ccc(Cl)cc4c(N)c3C(C1)C2 (centres undefined),inactive: -1.49%
20,O=P1(Nc2ccccn2)COc2ccccc2OC1,inactive: -2.41%

row,Compound,inhibition
1,CCOP(=O)(NC(=NC(C)c1ccccc1)NC(C)c1ccccc1)OCC (centres undefined),inactive: -2.83%
2,CN(CCCl)Cc1cc(Cl)c(NC2=NCCN2)c(Cl)c1,inactive: -5.82%
3,CCOP(=O)(Nc1ccc(C)cn1)OCC,inactive: -4.27%
4,Clc1n[nH]nc1-c1nn[nH][15n]1,inactive: -4.52%
5,O=P1(N(CCCl)CCCl)NCCC(C(F)(F)F)O1 (centres undefined),inactive: -6.86%
6,CC(C)(C)C(=O)NC(Sc1ncccn1)C(Cl)(Cl)Cl (centres undefined),inactive: -6.96%
7,Cc1ccc(S(=O)(=O)N(CCCN)CCCc2c(C)nc(N)[nH]c2=O)cc1,inactive: -4.05%
8,O=P1(Nc2ncccn2)COc2ccccc2OC1,inactive: -4.31%
9,Nc1cccc([As](=O)(O)c2ccccc2)c1,inactive: -3.4%
10,NS(=O)(=O)c1cccc(NC(=O)COC(=O)C(O)(c2ccccc2)c2ccccc2)c1,inactive: -11.5%
11,O=P1(Nc2ccc(Br)cn2)COc2ccccc2OC1,inactive: -3.34%
12,Cc1ccc(OCC(=O)OC2CN3CCC2CC3)cc1 (centres undefined),inactive: -4.71%
13,O=[As](O)(c1cccs1)c1cccs1,inactive: -18.5%
14,Cc1nn(-c2ccccc2)c2c1P(=O)(N1CCOCC1)N(C)C(c1ccccc1)=N2 (centres undefined),inactive: -7.7%
15,Cc1ccc(C(=O)OC2CN3CCC2CC3)cc1 (centres undefined),inactive: -3.31%
16,CC1CCC(C(C)C)C(OP(=O)(Nc2ccccn2)c2ccccc2)C1 (centres undefined),inactive: -3.98%
17,CN(C)C1(CNC(=O)c2ccc(S(C)(=O)=O)cc2)CCCCC1,inactive: -4.74%
18,O=C(/C=C/c1ccccc1)OC1CN2CCC1CC2 (centres undefined),inactive: -4.39%
19,CCCC1OP(=O)(Nc2ccccc2)OCC1CC (centres undefined),inactive: -9.68%
20,NC(=O)Nc1ccc([As](=O)(O)O)cc1,inactive: -6.48%

row,Compound,inhibition
1,N#CCCN(C(=O)COC(=O)C(O)(c1ccccc1)c1ccccc1)c1ccc(F)cc1,inactive: -2.7%
2,CN(C(=O)Cc1ccccc1)[C@@H]1CC[C@]2(CCCO2)C[C@H]1N1CCCC1,inactive: -4.64%
3,CCOP1(=S)c2c(C)nn(CCC#N)c2N=C(c2ccc(F)cc2)N1C (centres undefined),inactive: -7.58%
4,O=[N+]([O-])c1ccc2c(c1)nnn2O,inactive: -9.36%
5,CN(C(=O)Cc1ccc(Cl)c(Cl)c1)[C@H]1CC[C@@]2(CCCO2)C[C@@H]1N1CCCC1,inactive: -5.36%
6,CCOP1(=S)c2c(C)nn(CCC#N)c2N=C(c2ccccc2F)N1C (centres undefined),inactive: -9.56%
7,O=P(Nc1nccs1)(Oc1ccccc1)Oc1ccccc1,inactive: -5.49%
8,O=C(O)COc1ccc([As](=O)(O)O)cc1[N+](=O)[O-],inactive: -2.17%
9,Nc1ccccc1[As](=O)(O)c1ccccc1,inactive: -15.7%
10,Cc1ccc(NCCc2c([N+](=O)[O-])cc([N+](=O)[O-])cc2[N+](=O)[O-])cc1,inactive: -7.02%
11,Nc1cccc2c([As](=O)(O)O)cccc12,inactive: -5.64%
12,CCCOP(=S)(Nc1nc(N)cc(=O)[nH]1)OCCC,inactive: -13.8%
13,COc1cc(C2NCCC3(OCCO3)C2(C)C)cc(OC)c1OC (centres undefined),inactive: -9.47%
14,CCOP(=O)(Nc1cccc2ccccc12)OCC,inactive: 14%
15,O=C(OC1CN2CCC1CC2)c1ccc(Cl)cc1 (centres undefined),inactive: -5.32%
16,COc1cc(C(=O)NCC2(N3CCOCC3)CCCCC2)cc(Cl)c1OC(C)C,inactive: -4.37%
17,O=[As](O)(O)c1cccnc1,inactive: -12.6%
18,CS(=O)(=O)c1ccc(Cl)c(NC(=O)COC(=O)C(O)(c2ccccc2)c2ccccc2)c1,inactive: -5.05%
19,O=[As](O)(c1cccc(O)c1)c1cccc(O)c1,inactive: -15%
